BindingDB's records for doi:10.7270/Q2NC5ZHH (Ambit Biosciences, 2008)

Chains of the proteins cited; added tags and fusions are not shown.
UniProt P49759, whole entry R432A: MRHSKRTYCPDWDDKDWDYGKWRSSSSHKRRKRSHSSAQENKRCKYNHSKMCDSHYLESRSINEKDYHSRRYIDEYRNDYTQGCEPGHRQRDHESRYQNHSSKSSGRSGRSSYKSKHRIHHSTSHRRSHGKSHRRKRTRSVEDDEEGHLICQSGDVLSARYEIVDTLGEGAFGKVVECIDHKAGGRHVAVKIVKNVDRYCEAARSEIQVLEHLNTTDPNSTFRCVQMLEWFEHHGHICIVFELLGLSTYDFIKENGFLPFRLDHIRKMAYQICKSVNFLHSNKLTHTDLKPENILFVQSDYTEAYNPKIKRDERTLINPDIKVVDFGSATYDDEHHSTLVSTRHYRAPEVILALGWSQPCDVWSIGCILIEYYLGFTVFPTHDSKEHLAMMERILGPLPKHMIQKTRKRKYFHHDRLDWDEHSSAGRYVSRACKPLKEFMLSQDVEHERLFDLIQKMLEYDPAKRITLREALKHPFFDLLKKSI

Target: Dual specificity protein kinase CLK1 [R432A] (Homo sapiens, UniProt P49759, R432A)
Conditions: Kd (nM)

Question: For `CCOc1cc2ncc(C#N)c(Nc3ccc(F)c(Cl)c3)c2cc1NC(=O)/C=C/CN(C)C` [(E)-N-[4-(3-chloro-4-fluoroanilino)-3-cyano-7-ethoxyquinolin-6-yl]-4-(dimethylamino)but-2-enamide], which Kd is on record?
Answer: Its Kd is 3300 nM.
